This is an account of results in patent US10112926B2 (priority 2014, dated 2018).

The chains behind the UniProt entries cited, without tags or fusion partners. Where a name states a change or a piece, a line headed by the entry shows the natural chain unless it says otherwise.
UniProt P42338: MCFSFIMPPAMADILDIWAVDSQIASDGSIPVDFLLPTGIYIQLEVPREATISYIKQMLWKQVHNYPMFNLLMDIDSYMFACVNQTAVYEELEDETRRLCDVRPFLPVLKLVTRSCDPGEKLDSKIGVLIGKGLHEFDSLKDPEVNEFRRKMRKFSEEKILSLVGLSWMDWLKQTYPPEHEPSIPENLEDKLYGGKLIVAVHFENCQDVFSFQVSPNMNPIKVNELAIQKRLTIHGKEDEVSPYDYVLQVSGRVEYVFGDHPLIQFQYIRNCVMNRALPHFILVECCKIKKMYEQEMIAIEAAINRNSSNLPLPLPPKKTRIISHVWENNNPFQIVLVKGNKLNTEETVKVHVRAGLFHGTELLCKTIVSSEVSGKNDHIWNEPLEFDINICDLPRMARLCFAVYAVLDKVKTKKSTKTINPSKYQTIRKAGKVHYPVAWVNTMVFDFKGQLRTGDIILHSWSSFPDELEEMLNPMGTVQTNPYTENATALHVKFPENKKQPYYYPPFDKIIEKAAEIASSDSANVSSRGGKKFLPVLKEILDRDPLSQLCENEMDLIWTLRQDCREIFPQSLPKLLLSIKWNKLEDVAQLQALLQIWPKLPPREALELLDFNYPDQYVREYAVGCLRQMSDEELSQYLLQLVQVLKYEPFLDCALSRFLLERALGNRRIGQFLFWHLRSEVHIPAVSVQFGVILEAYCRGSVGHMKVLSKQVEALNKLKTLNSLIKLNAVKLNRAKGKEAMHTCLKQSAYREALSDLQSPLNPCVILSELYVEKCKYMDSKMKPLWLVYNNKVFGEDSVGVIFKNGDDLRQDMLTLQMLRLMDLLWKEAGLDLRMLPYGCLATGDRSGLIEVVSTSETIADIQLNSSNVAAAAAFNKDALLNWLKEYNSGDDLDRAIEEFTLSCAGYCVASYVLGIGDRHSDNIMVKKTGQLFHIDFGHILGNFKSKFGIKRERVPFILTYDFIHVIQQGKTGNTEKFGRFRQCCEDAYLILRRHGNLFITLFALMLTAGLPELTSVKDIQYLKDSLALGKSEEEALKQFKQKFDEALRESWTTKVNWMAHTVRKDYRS
UniProt P42336, whole entry, looked up: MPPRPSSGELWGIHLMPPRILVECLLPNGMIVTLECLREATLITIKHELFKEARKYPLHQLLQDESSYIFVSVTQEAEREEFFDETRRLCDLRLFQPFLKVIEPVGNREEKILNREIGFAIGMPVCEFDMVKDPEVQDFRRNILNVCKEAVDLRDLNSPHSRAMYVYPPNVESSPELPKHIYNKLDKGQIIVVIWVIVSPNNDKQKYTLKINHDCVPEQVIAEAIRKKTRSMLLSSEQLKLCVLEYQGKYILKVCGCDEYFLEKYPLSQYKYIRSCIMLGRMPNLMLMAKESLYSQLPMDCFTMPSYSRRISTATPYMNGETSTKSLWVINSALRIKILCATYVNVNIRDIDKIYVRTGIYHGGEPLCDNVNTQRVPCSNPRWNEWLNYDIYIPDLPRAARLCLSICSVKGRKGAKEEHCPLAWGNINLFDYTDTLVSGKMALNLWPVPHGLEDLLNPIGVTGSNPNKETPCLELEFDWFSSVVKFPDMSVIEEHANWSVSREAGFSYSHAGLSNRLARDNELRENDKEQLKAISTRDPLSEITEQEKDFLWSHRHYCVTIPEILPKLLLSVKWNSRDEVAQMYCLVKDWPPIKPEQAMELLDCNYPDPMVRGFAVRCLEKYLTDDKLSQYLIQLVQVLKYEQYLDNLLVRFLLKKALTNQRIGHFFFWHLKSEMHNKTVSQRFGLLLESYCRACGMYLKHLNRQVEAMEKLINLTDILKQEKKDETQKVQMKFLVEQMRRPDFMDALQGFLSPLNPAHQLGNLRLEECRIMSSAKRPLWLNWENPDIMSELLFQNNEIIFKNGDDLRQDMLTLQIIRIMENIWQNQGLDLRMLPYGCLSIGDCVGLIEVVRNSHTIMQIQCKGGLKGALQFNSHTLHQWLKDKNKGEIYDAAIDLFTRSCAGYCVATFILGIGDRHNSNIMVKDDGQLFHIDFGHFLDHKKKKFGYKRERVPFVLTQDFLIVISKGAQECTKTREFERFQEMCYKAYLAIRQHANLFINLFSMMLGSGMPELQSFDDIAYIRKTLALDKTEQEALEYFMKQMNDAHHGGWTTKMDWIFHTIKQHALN

Each structure is given as a SMILES string. Structures can show the parent of a compound that is named as a salt. Where two headings read alike, the source gives them in different places.

Experiment [1] addresses T1, PI 3-kinase beta (Rat-1 pBABEpuro Myr-HA-hp110 beta cells) (Homo sapiens (Human), UniProt P42338). As to the kind of experiment: cell-based.
The target of the next experiment is PI 3-kinase beta (Homo sapiens (Human), UniProt P42338). The note with it: read-out: Assay B PI3Kβ IC50.
Experiment [2] concerns the target T1, PI 3-kinase beta (Rat-1 pBABEpuro Myr-HA-hp110 beta cells). As to the kind of experiment: cell-based. The conditions noted are these: Assay I PI3Kβ IC50.
Experiment [3] deals with PI 3-kinase alpha (Rat-1 pBABEpuro Myr-HA-hp110 alpha cells) (Homo sapiens (Human), UniProt P42336). As to the kind of experiment: cell-based. The note with it: Assay H PI3Kα IC50.
The next experiment addresses PI 3-kinase alpha (Homo sapiens (Human), UniProt P42336). The conditions noted are these: read-out: Assay A PI3Kα IC50.

In general, IC50 refers to the concentration that inhibits the measured activity by half. Take `Cc1ccc(S(=O)(=O)NCC(C)(C)O)cc1-c1cnc(N)c(-c2cnn(C)c2C)c1` [Example 61, 3-(6-Amino-5-(1,5-dimethyl-1H-pyrazol-4-yl)pyridin-3-yl)-N-(2-hydroxy-2-methylpropyl)-4-methylbenzenesulfonamide]: the results for the IC50 (in experiment [1]; on PI 3-kinase beta) were greater than 10 µM and 1.3 µM, respectively.

`Cc1noc(-c2cc(-c3cc(S(=O)(=O)NC[C@@H]4CCOC4)ccc3C)cnc2N)n1` [Example 87, (S)-3-(6-Amino-5-(3-methyl-1,2,4-oxadiazol-5-yl)pyridin-3-yl)-4-methyl-N-((tetrahydrofuran-3-yl)methyl)benzenesulfonamide] returned a half-inhibitory concentration (IC50) in experiment [1] greater than 10 µM.

In the case of `Cc1noc(-c2cc(-c3cc(S(=O)(=O)NCC4(C)COC4)ccc3C)cnc2N)n1` [Example 4.9, 3-(6-Amino-5-(3-methyl-1,2,4-oxadiazol-5-yl)pyridin-3-yl)-4-methyl-N-((3-methyloxetan-3-yl)methyl)benzene-sulfonamide], the IC50 was greater than 10 µM in experiment [2], greater than 10 µM in experiment [3], 0.62 µM at PI 3-kinase alpha and 4.5 µM at PI 3-kinase beta.

As to `CCc1cc(-c2cc(-c3cc(S(=O)(=O)NCC(C)(C)O)ccc3C)cnc2N)on1` [Example 4.6, 3-(6-Amino-5-(3-ethylisoxazol-5-yl)pyridin-3-yl)-N-(2-hydroxy-2-methylpropyl)-4-methyl-benzenesulfonamide hydrochloride], the IC50 was greater than 3 µM in experiment [2], 6.23 µM in experiment [3], 0.52 µM on PI 3-kinase alpha and 4.1 µM at PI 3-kinase beta.

Consider `Cc1cc(-c2cc(-c3cc(S(=O)(=O)NCC4(CO)CCCCC4)ccc3C)cnc2N)on1` [Example 37.3, 3-(6-Amino-5-(3-methylisoxazol-5-yl)pyridin-3-yl)-N-((1-(hydroxymethyl)cyclohexyl)methyl)-4-methylbenzenesulfonamide], for which the concentration for half-maximal inhibition (IC50) in experiment [2] is greater than 10 µM; in experiment [3], 1.71 µM; at PI 3-kinase alpha, 0.14 µM; on PI 3-kinase beta it was 2.1 µM.

Consider `Cc1noc(-c2cc(-c3cc(S(=O)(=O)N4CC(CO)C4)ccc3C)cnc2N)n1` [Example 37.39, (S)-((3-(6-Amino-5-(3-methyl-1,2,4-oxadiazol-5-yl)pyridin-3-yl)-4-methylphenyl)sulfonyl)azetidin-3-yl)methanol], for which the IC50 is greater than 10 µM in experiment [2], greater than 10 µM in experiment [3], 1.8 µM on PI 3-kinase alpha and 3.3 µM on PI 3-kinase beta.

Consider `Cc1cc(-c2cc(-c3cc(S(=O)(=O)N4CC(N(C)C)C4)ccc3C)cnc2N)on1` [Example 19.19, 5-(5-((3-(dimethylamino)azetidin-1-yl)sulfonyl)-2-methylphenyl)-3-(3-methylisoxazol-5-yl)pyridin-2-amine acetic acid salt], for which the results for the IC50 (in experiment [1]; on PI 3-kinase beta) were greater than 10 µM and 6.1 µM, respectively.

With `Cc1cc(-c2cc(-c3cc(S(=O)(=O)N[C@@H]4CCNC(=O)C4)ccc3C)cnc2N)on1` [Example 37.4, (R)-3-(6-Amino-5-(3-methylisoxazol-5-yl)pyridin-3-yl)-4-methyl-N-(2-oxopiperidin-4-yl)benzenesulfonamide], the half-inhibitory concentration (IC50) in experiment [2] is greater than 10 µM; in experiment [3] it was greater than 10 µM; on PI 3-kinase alpha, 0.57 µM; on PI 3-kinase beta it was 6.7 µM.

Take `Cc1ccc(S(=O)(=O)N[C@H]2CC[C@H](O)CC2)cc1-c1cnc(N)c(-c2nc(C(F)F)no2)c1` [Example 70, 3-(6-Amino-5-(3-(difluoromethyl)-1,2,4-oxadiazol-5-yl)pyridin-3-yl)-N-((1r,4r)-4-hydroxycyclohexyl)-4-methylbenzenesulfonamide hydrochloride]: the concentration for half-maximal inhibition (IC50) was greater than 3 µM in experiment [2], greater than 6.5 µM in experiment [3], 0.58 µM on PI 3-kinase alpha and 4.4 µM on PI 3-kinase beta.

With `Cc1nc(-c2cc(-c3cc(S(=O)(=O)NCCC(C)(C)O)ccc3C)cnc2N)cs1` [Example 93, 3-(6-Amino-5-(2-methylthiazol-4-yl)pyridin-3-yl)-N-(3-hydroxy-3-methylbutyl)-4-methylbenzenesulfonamide], the IC50 is greater than 10 µM in experiment [2], greater than 10 µM in experiment [3], 0.88 µM on PI 3-kinase alpha and 4.8 µM on PI 3-kinase beta.
